Values quoted from earlier work, collected in patent US7235367B2, “Method using crystal structure of estrogen receptor-β complex” (Genetics Institute, LLC., priority 2000, dated 2007).

Amino acid sequences for entries named in this document (tags omitted).
UniProt P03372, whole entry: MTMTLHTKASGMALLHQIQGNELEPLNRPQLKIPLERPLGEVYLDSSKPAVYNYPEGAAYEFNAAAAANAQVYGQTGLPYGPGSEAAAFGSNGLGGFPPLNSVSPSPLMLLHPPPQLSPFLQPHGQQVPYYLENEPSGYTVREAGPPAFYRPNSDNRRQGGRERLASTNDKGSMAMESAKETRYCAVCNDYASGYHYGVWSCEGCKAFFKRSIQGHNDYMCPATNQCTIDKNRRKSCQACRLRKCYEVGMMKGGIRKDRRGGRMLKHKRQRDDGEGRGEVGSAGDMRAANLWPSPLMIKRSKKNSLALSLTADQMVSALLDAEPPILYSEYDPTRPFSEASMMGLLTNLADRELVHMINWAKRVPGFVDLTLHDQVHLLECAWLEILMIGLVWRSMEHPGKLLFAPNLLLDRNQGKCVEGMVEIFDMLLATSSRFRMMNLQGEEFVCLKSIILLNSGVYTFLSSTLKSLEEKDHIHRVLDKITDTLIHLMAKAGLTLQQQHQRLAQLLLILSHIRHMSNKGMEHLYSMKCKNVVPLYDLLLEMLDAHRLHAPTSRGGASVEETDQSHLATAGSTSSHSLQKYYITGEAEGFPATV

Target: ER-α (Homo sapiens, UniProt P03372)
Details: co-activator binding, ER-α relative to ER-β

- fold tighter binding to ER-α than to ER-β: approximately 700 fold
Substance: SRC-3: Steroid receptor coactivator-3, co-activator protein of estrogen receptors
